Measurements taken from ChEMBL document CHEMBL1909046, “DrugMatrix in vitro pharmacology data”.

Amino acid sequences for entries named in this document (tags omitted). A change or cut given only in a name is not applied to a line headed by its entry.
UniProt P35372, whole entry, looked up: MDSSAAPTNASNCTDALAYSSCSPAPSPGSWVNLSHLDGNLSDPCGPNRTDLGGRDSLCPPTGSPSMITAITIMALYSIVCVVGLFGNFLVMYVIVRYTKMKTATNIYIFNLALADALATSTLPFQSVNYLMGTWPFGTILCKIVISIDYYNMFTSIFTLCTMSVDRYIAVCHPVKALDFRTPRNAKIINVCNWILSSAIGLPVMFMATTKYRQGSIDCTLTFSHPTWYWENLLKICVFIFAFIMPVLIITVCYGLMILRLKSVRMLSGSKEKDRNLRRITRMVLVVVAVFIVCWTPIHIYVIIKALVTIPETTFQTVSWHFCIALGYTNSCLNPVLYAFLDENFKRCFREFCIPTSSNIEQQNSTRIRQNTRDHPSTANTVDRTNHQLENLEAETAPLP
UniProt P41145: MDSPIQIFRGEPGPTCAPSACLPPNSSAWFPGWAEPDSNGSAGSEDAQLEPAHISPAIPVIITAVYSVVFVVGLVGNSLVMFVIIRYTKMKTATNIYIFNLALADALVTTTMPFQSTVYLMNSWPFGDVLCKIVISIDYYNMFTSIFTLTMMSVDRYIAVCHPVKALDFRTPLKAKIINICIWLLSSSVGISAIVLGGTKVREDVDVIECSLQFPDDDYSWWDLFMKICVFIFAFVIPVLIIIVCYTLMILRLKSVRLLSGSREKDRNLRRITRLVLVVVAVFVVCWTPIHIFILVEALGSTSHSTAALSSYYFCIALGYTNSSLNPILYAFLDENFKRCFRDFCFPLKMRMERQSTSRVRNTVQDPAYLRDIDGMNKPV

Key:
Mu-type opioid receptor = Mu-type opioid receptor (Homo sapiens, UniProt P35372); test: DRUGMATRIX: Opiate mu (OP3, MOP) radioligand binding (ligand: [3H] Diprenorphine); details: cho-k1
[1] = biological target: Kappa-type opioid receptor (Homo sapiens, UniProt P41145); test: DRUGMATRIX: Opiate kappa (OP2, KOP) radioligand binding (ligand: [3H] Diprenorphine); details: hek293

O=C1C[C@@H]2OCC=C3CN4CC[C@]56c7ccccc7N1[C@H]5[C@H]2[C@H]3C[C@H]46
Not Active: IC50 (Mu-type opioid receptor) | Ki (Mu-type opioid receptor) | IC50 [1] | Ki [1]

CCCC[C@@H](CC)COC(=O)c1ccccc1C(=O)OC[C@@H](CC)CCCC
Not Active: IC50 (Mu-type opioid receptor) | Ki (Mu-type opioid receptor) | IC50 [1] | Ki [1]

O=C(O)c1ccccc1O
Not Active: IC50 (Mu-type opioid receptor) | Ki (Mu-type opioid receptor) | IC50 [1] | Ki [1]

C1CCN2C[C@@H]3C[C@@H](CN4CCCC[C@@H]34)[C@H]2C1
Not Active: IC50 (Mu-type opioid receptor) | Ki (Mu-type opioid receptor) | IC50 [1] | Ki [1]

CC[C@@H](C(=O)[C@@H](C)[C@@H](O)[C@H](C)[C@@H]1O[C@@H]([C@@H](CC)C(=O)O)CC[C@@H]1C)[C@H]1O[C@]2(C=C[C@@H](O)[C@]3(CC[C@@](C)([C@H]4CC[C@](O)(CC)[C@H](C)O4)O3)O2)[C@H](C)C[C@@H]1C
Not Active: IC50 (Mu-type opioid receptor) | Ki (Mu-type opioid receptor) | IC50 [1] | Ki [1]

Nc1ccc(Cc2ccc(N)cc2)cc1
Not Active: IC50 (Mu-type opioid receptor) | Ki (Mu-type opioid receptor) | IC50 [1] | Ki [1]

O=C(O)CNCP(=O)(O)O
Not Active: IC50 (Mu-type opioid receptor) | Ki (Mu-type opioid receptor) | IC50 [1] | Ki [1]

C[n+]1ccc(-c2cc[n+](C)cc2)cc1.[Cl-].[Cl-]
Not Active: IC50 (Mu-type opioid receptor) | Ki (Mu-type opioid receptor) | IC50 [1] | Ki [1]

N[C@@H](Cc1ccc(N(CCCl)CCCl)cc1)C(=O)O
Not Active: IC50 (Mu-type opioid receptor) | Ki (Mu-type opioid receptor) | IC50 [1] | Ki [1]

C[C@@H]1O[C@@H](O[C@@H]2C=C3CC[C@@H]4[C@H](CC[C@]5(C)[C@@H](c6ccc(=O)oc6)CC[C@]45O)[C@@]3(C)CC2)[C@H](O)[C@H](O)[C@H]1O
Not Active: IC50 (Mu-type opioid receptor) | Ki (Mu-type opioid receptor) | IC50 [1] | Ki [1]

NNc1ccccc1
Not Active: IC50 (Mu-type opioid receptor) | Ki (Mu-type opioid receptor) | IC50 [1] | Ki [1]

O=C(O)CCCc1ccc(N(CCCl)CCCl)cc1 [CHLORAMBUCIL]
Not Active: IC50 (Mu-type opioid receptor) | Ki (Mu-type opioid receptor) | IC50 [1] | Ki [1]
